Biological target: actin, endogenous in human PDAC2 cells (human, UniProt P60709 2-375)
Test: IP with Flag antibody from PDAC2 cells stably expressing Flag-HIP1R S929A, immunoblot

binding result: no binding
B1: Flag-HIP1R S929A mutant (human HIP1R with C-terminal DYK tag), stably expressed in PDAC2 cells (other)
chain: MNSIKNVPARVLSRRPGHSLEAEREQFDKTQAISISKAINTQEAPVKEKHARRIILGTHHEKGAFTFWSYAIGLPLPSSSILSWKFCHVLHKVLRDGHPNVLHDCQRYRSNIREIGDLWGHLHDRYGQLVNVYTKLLLTKISFHLKHPQFPAGLEVTDEVLEKAAGTDVNNIFQLTVEMFDYMDCELKLSESVFRQLNTAIAVSQMSSGQCRLAPLIQVIQDCSHLYHYTVKLLFKLHSCLPADTLQGHRDRFHEQFHSLRNFFRRASDMLYFKRLIQIPRLPEGPPNFLRASALAEHIKPVVVIPEEAPEDEEPENLIEISTGPPAGEPVVVADLFDQTFGPPNGSVKDDRDLQIESLKREVEMLRSELEKIKLEAQRYIAQLKSQVNALEGELEEQRKQKQKALVDNEQLRHELAQLRAAQLEGERSQGLREEAERKASATEARYNKLKEKHSELVHVHAELLRKNADTAKQLTVTQQSQEEVARVKEQLAFQVEQVKRESELKLEEKSDQLEKLKRELEAKAGELARAQEALSHTEQSKSELSSRLDTLSAEKDALSGAVRQREADLLAAQSLVRETEAALSREQQRSSQEQGELQGRLAERESQEQGLRQRLLDEQFAVLRGAAAEAAGILQDAVSKLDDPLHLRCTSSPDYLVSRAQEALDAVSTLEEGHAQYLTSLADASALVAALTRFSHLAADTIINGGATSHLAPTDPADRLIDTCRECGARALELMGQLQDQQALRHMQASLVRTPLQGILQLGQELKPKSLDVRQEELGAVVDKEMAATSAAIEDAVRRIEDMMNQARHASSGVKLEVNERILNSCTDLMKAIRLLVTTSTSLQKEIVESGRGAATQQEFYAKNSRWTEGLISASKAVGWGATQLVEAADKVVLHTGKYEELIVCSHEIAASTAQLVAASKVKANKHAPHLSRLQECSRTVNERAANVVASTKSGQEQIEDRDTMDFSGLSLIKLKKQEMETQVRVLELEKTLEAERMRLGELRKQHYVLAGASGSPGEEVAIRPSTAPRSVTTKKPPLAQKPSVAPRQDHQLDKKDGIYPAQLVNY
notes: not shown: C-terminal DYK (Flag) tag from pcDNA3.1+/C-(K)-DYK
